We go through 102 molecules from PubChem BioAssay AID588458 (Sanford-Burnham Center for Chemical Genomics, 2011).

Amino acid sequences for entries named in this document (tags omitted). A change or cut given only in a name is not applied to a line headed by its entry.
UniProt P26358: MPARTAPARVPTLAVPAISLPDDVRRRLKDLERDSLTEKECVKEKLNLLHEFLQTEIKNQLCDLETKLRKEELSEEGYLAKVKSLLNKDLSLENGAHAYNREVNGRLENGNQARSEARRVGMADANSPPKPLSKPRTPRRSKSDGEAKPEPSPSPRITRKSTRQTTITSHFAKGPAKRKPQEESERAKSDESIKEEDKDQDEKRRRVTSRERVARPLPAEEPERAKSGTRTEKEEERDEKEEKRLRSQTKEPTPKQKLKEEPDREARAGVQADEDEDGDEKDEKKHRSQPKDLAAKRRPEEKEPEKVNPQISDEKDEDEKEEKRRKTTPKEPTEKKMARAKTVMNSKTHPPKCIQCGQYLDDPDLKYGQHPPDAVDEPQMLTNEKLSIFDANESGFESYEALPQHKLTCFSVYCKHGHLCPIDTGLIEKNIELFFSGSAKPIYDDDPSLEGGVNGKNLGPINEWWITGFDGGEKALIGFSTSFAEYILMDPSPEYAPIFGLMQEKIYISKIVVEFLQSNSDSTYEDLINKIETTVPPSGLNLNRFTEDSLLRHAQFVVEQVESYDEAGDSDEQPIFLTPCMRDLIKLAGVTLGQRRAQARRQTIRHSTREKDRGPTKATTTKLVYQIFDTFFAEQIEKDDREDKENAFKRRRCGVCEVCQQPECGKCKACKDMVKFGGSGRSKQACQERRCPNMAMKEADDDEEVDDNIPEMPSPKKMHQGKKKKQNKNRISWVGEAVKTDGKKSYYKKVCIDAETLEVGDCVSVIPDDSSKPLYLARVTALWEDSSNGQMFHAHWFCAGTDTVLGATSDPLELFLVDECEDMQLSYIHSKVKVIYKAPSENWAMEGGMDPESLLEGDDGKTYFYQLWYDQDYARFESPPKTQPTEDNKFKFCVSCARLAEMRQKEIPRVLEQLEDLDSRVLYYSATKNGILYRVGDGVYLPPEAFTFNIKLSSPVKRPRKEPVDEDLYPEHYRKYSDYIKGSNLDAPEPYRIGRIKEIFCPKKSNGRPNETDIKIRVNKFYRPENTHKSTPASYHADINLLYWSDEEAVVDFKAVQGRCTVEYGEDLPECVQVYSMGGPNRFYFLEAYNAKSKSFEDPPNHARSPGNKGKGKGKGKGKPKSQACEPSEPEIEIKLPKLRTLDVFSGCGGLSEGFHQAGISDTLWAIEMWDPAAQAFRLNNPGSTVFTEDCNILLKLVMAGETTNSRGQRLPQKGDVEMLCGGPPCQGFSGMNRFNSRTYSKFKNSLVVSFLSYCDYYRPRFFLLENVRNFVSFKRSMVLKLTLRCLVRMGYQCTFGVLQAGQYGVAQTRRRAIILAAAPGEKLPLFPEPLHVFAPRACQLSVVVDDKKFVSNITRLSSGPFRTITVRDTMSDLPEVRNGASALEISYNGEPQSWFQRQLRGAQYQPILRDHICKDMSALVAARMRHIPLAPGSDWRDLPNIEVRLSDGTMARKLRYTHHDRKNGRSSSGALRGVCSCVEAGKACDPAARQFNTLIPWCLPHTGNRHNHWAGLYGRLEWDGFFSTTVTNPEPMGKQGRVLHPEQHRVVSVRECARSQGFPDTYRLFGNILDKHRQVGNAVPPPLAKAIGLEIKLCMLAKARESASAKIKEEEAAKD

The entries are a selection whose mix differs from that of the whole data set. Activity calls are given as the source filed them. No stated cut-off is given here; in the data, active means inhibition above about 50%; inactive means the rest.

The target in the experiment is DNA (cytosine-5)-methyltransferase 1 (Homo sapiens) (UniProt P26358). The experiment in a line: human DNMT1 methyltransferase inhibitors, primary screen, biochemical, molecular beacon, fluorescence, HinP1I cleavage, uHTS (AID 588458). As to conditions: at 10 µM, stronger effect = higher value.
Take `COC(=O)C1(C)COP(=O)(Nc2ccccc2)OC1` (configuration not stated): the inhibition (reported as % activation of signal) was inactive: -1.58%.

Consider `O=[N+]([O-])c1cccc(NC2=NCC(CBr)S2)c1` (configuration not stated), for which the inhibition (reported as % activation of signal) was inactive: -8.55%. Next, `O=C(O)CNc1ccc([As](=O)(O)O)cc1`: inactive: 1.33%. For the molecule `CC(C)(C)C(=O)NC(Sc1ccncn1)C(Cl)(Cl)Cl` (configuration not stated), the inhibition (reported as % activation of signal) was inactive: 3.44%.

As for `O=[N+]([O-])c1ncn(CCn2ncnc2[N+](=O)[O-])n1`, the inhibition (reported as % activation of signal) is inactive: -1.28%. Under `O=C(Nc1cc([As](=O)(O)O)ccc1O)c1ccccc1` stands inactive: 3.04%. Next, `O=P1(N(CCCl)CCCl)OCCCS1` (configuration not stated): inactive: 2.55%.

Turning to `CC(C)c1nc(Nc2ccccc2)n(P(=O)(N(C)C)N(C)C)n1`, the inhibition (reported as % activation of signal) is inactive: -2.61%. Next, `CC(C)=N/N=C(\N)N[N+](=O)[O-]`: inactive: 0.34%; `CN(C)C(=O)OCCc1n(C)cc[n+]1C`: inactive: -5.79%; `CC1CCN(C(=O)Oc2c(Cl)cc(Cl)c3cccnc23)CC1`: inactive: 0.07%.

On to `c1cc(-c2nn[nH]n2)ccc1-c1nn[nH]n1`, for which the inhibition (reported as % activation of signal) is inactive: 4.8%.

As for `Nc1ccc([As](=O)(O)c2ccc(N)cc2)cc1`, the inhibition (reported as % activation of signal) was inactive: 1.64%. Next, `C[N+]1=C2C=CC=CC=C2SC12C([N+](=O)[O-])=CC([N+](=O)[O-])=C[C-]2[N+](=O)[O-]` (configuration not stated): active: 95%; `CCN(/C(=N/P(=O)(N1CCOCC1)N1CCOCC1)N1CCOCC1)c1ccc(OC)cc1`: inactive: -0.38%; `CC(=O)N1C2C3N(C(C)=O)C1C1N(C(C)=O)C(C(N1C(C)=O)N3C(C)=O)N2C(C)=O`: inactive: -0.34%. For `O=[N+]([O-])c1cccc2n[nH]nc12`, the inhibition (reported as % activation of signal) was inactive: 0.52%. Under `Cc1ccc(NP(=O)(Oc2ccccc2)Oc2ccccc2)nc1` stands inactive: 0.65%; under `O=[N+]([O-])c1cc([N+](=O)[O-])c(CCNc2ccccc2)c([N+](=O)[O-])c1`, inactive: -3.26%.

On to `CCc1nc2c(n1)c1c(non1O)c1c2no[n+]1[O-]`, for which the inhibition (reported as % activation of signal) is inactive: 10.2%. Next, `COc1ccc(C2=NCC(CBr)S2)cc1` (configuration not stated): inactive: -5.91%; `O=[N+]([O-])C1C(O)C(O)C([N+](=O)[O-])C(O)C1O` (configuration not stated): inactive: 22.6%; `Nc1cc(N)c2nonc2c1[N+](=O)[O-]`: inactive: -17.2%. Under `CC(C)CC(=O)NC(Sc1ccc(Cl)cc1)C(Cl)(Cl)Cl` (configuration not stated) stands inactive: 3.18%; under `Oc1ccccc1CNc1ccccn1`, inactive: 3.89%. Next, `O=C(NC(Sc1ccncn1)C(Cl)(Cl)Cl)c1ccccc1` (configuration not stated): inactive: 2.22%. As for `COc1ccccc1OP(=O)(Nc1ccc(C)cn1)Oc1ccccc1OC`, the inhibition (reported as % activation of signal) was inactive: 0.35%. Next, `Cc1ccc(OP(=O)(Nc2nccs2)Oc2ccc(C)cc2)cc1`: inactive: -1.68%; `CN1CCCC(OC(=O)C(c2ccccc2)c2ccccc2)C1` (configuration not stated): inactive: 4.35%. Under `Clc1ccc(Cl)c(NC2=NCC(CBr)S2)c1` (configuration not stated) stands inactive: 2.14%; under `NC(=O)c1cc([N+](=O)[O-])cc([N+](=O)[O-])c1N`, inactive: 3.53%. Under `CN(C(=O)Cc1ccc(Cl)c(Cl)c1)[C@H]1CCCC[C@H]1N1CCCC1` stands inactive: -5.94%; under `Cc1ccc(N/C(=N/P(=O)(N2CCOCC2)N2CCOCC2)N2CCOCC2)cc1`, inactive: 2.64%. On to `CCN(N=Nc1nonc1N)c1nonc1N`, for which the inhibition (reported as % activation of signal) was inactive: 0.2%. Under `Nc1cccc2ccc([As](=O)(O)O)cc12` stands active: 74.2%; under `Cc1cc(SC(NC(=O)c2ccc(F)cc2)C(Cl)(Cl)Cl)ncn1` (configuration not stated), inactive: 3.39%; under `CCOP(=O)(Nc1ccccc1)OCC`, inactive: 2.89%.

Regarding `CN(C(=O)Cc1ccc(Cl)c(Cl)c1)[C@H]1CCCC[C@@H]1N1CCCC1`, the inhibition (reported as % activation of signal) is inactive: -3.92%. As for `Cc1ccc(NP(=O)(Oc2ccccc2F)Oc2ccccc2F)nc1`, the inhibition (reported as % activation of signal) is inactive: -0.33%. On to `CC(=O)Nc1ccc([As](=O)(O)O)cc1`, for which the inhibition (reported as % activation of signal) is inactive: 3.02%. Under `O=C(O)c1ccccc1[As](=O)(O)O` stands inactive: 1.67%; under `CCCC1OP(N)(=O)OCC1CC` (configuration not stated), inactive: -2.96%; under `O=P(Nc1nc2ccc(Cl)cc2s1)(c1ccccc1)c1ccccc1`, inactive: -4.33%. Under `CN(C)P(=O)(N(C)C)n1c(Nc2ccccc2)nnc1-c1ccccc1` stands inactive: 1.07%. Under `CC(NC(=O)COC(=O)C(O)(c1ccccc1)c1ccccc1)c1ccccc1` (configuration not stated) stands inactive: -0.73%; under `Cc1ccccc1OP(=O)(Nc1ccccn1)Oc1ccccc1C`, inactive: -0.96%; under `O=c1c2cc([N+](=O)[O-])ccc2[nH]c2c([N+](=O)[O-])cc([N+](=O)[O-])cc12`, inactive: -13.5%. In the case of `CN(C)C(=O)Oc1noc2ccccc12`, the inhibition (reported as % activation of signal) was inactive: -0.52%.

As for `COC(=O)c1cc2c(s1)N=C(c1ccccc1)N(C)P2(=O)N1CCOCC1` (configuration not stated), the inhibition (reported as % activation of signal) was inactive: 4.01%. Under `CC(=O)NC(SC(=S)N(CC(C)C)CC(C)C)C(Cl)(Cl)Cl` (configuration not stated) stands inactive: -10.6%; under `Cc1ccc(OP(=O)(Nc2ccccn2)Oc2ccc(C)cc2)cc1`, inactive: -2.43%; under `O=C(OC1CN2CCC1CC2)c1ccccc1` (configuration not stated), inactive: -0.68%. Next, `CCC(=O)N1C2C3N(C(=O)CC)C1C1N(C(=O)CC)C(C(N1C(=O)CC)N3C(=O)CC)N2C(=O)CC`: inactive: -0.68%. Next, `O=P1(N(CCCl)CCCl)OCCC2CCCCN21` (configuration not stated): inactive: -10.1%.

For the molecule `O=C(NC1CCS(=O)(=O)C1)NP(=S)(Oc1ccccc1)Oc1ccccc1` (configuration not stated), the inhibition (reported as % activation of signal) is inactive: -4.56%.

For `CCNC(=S)/N=C(\N)N[N+](=O)[O-]`, the inhibition (reported as % activation of signal) is inactive: 0.9%. Next, `c1ccc(-c2nn[nH]n2)c(-c2nn[nH]n2)c1`: inactive: 0.18%.

As for `Cc1ccc(NP(=O)(Oc2cccc(C)c2)Oc2cccc(C)c2)nc1`, the inhibition (reported as % activation of signal) was inactive: 6.92%. Next, `CC(=O)Nc1ccc([As](=O)(O)O)c(O)c1`: inactive: -0.77%.

As for `CC(=O)Nc1ccc(Oc2c([N+](=O)[O-])cc([N+](=O)[O-])cc2[N+](=O)[O-])cc1`, the inhibition (reported as % activation of signal) is inactive: -0.77%. Under `CC(=O)c1ccc(N2CC2c2ccncc2)cc1` (configuration not stated) stands inactive: 1.14%. Under `N#C/C(=C\c1ccc(N(CCBr)CCBr)cc1)C(N)=O` stands inactive: 14.1%.

Regarding `COC(=O)C1(C)COP(=O)(NCc2ccccc2)OC1` (configuration not stated), the inhibition (reported as % activation of signal) was inactive: 2.86%. Next, `Cc1ccccc1CN(C)C(=O)COC(=O)C(O)(c1ccccc1)c1ccccc1`: inactive: 2.56%. As for `C[C@H]1OP(=O)(Oc2ccccc2)C[C@@H]2O[C@@H]21` (some centres not stated), the inhibition (reported as % activation of signal) is inactive: 0.2%. `C[C@@H]1C=CCP(=O)(Oc2ccccc2)O1` (some centres not stated): the inhibition (reported as % activation of signal) is inactive: 3.09%. Next, `CCc1cc(O)c([N+](=O)[O-])c(C)c1[N+](=O)[O-]`: inactive: -0.13%. Next, `CC(C)(C)C(=O)NC(Sc1ccccc1)C(Cl)(Cl)Cl` (configuration not stated): inactive: 1%; `O=P1(Nc2nc3ccc(Cl)cc3s2)COc2ccccc2O1` (configuration not stated): inactive: -0.53%. Under `CCOc1ccc(C2=NCC(CBr)S2)cc1` (configuration not stated) stands inactive: 5.4%; under `c1nnnn1CCn1cnnn1`, inactive: 2.19%. In the case of `O=P(Nc1nccs1)(c1ccccc1)c1ccccc1`, the inhibition (reported as % activation of signal) was inactive: 1.76%. Next, `CC(C)C(=O)NC(Sc1ccccc1)C(Cl)(Cl)Cl` (configuration not stated): inactive: -0.16%; `C(Cc1nn[nH]n1)Cc1nn[nH]n1`: inactive: 11.1%. Next, `Nc1ccc([As](=O)(O)c2ccc([N+](=O)[O-])cc2)cc1`: inactive: -0.13%; `O=C(OC1CN2CCC1CC2)c1cccc(Cl)c1` (configuration not stated): inactive: 3.66%; `CC(=O)NC(SC(=S)N(C)C)C(Cl)(Cl)Cl` (configuration not stated): inactive: 2.12%.

As for `O=[N+]([O-])c1ncn(CCn2cnc([N+](=O)[O-])n2)n1`, the inhibition (reported as % activation of signal) was inactive: -0.69%.

`O=[N+]([O-])c1ccc(O)c(/C=N/Nc2ccc([N+](=O)[O-])cc2[N+](=O)[O-])c1`: the inhibition (reported as % activation of signal) is inactive: -9.37%. Next, `O=[As](O)(c1ccccc1)c1ccc(O)cc1`: inactive: 2.13%. Next, `O=P(Nc1nc2ccccc2s1)(c1ccccc1)c1ccccc1`: inactive: 3.52%; `C[C@H]1OP(=O)(Oc2ccccc2)[C@H](O)[C@H](O)[C@H]1N=[N+]=[N-]` (some centres not stated): inactive: 5.89%.

In the case of `COc1ccc(N)c([N+](=O)[O-])c1[N+](=O)[O-]`, the inhibition (reported as % activation of signal) was inactive: 40.4%. Next, `Nc1ccc(CCCCOc2ccccc2)cc1`: inactive: -2.64%; `CN(C)C1(CNC(=O)c2ccc(Cl)c(S(N)(=O)=O)c2)CCCCC1`: inactive: 0.3%; `O=P(Nc1ccccn1)(c1ccc(Br)cc1)c1ccc(Br)cc1`: inactive: 1.17%. Next, `Cc1ccc(OCC(=O)OC2CN3CCC2CC3)cc1` (configuration not stated): inactive: -0.65%; `O=[As](O)(c1cccs1)c1cccs1`: inactive: 3.18%; `NS(=O)(=O)c1cccc(NC(=O)COC(=O)C(O)(c2ccccc2)c2ccccc2)c1`: inactive: 0.21%. Next, `O=P1(Nc2ccc(Br)cn2)COc2ccccc2OC1`: inactive: -2.69%; `Nc1cccc([As](=O)(O)c2ccccc2)c1`: inactive: -2.04%. In the case of `O=P1(Nc2ncccn2)COc2ccccc2OC1`, the inhibition (reported as % activation of signal) was inactive: 0.05%.

`Cc1ccc(S(=O)(=O)N(CCCN)CCCc2c(C)nc(N)[nH]c2=O)cc1`: the inhibition (reported as % activation of signal) was inactive: 4.18%. Next, `O=C(/C=C/c1ccccc1)OC1CN2CCC1CC2` (configuration not stated): inactive: 1.8%; `CCCC1OP(=O)(Nc2ccccc2)OCC1CC` (configuration not stated): inactive: 6.99%; `CN(C)C1(CNC(=O)c2ccc(S(C)(=O)=O)cc2)CCCCC1`: inactive: 1.43%.

With `Cc1nn(-c2ccccc2)c2c1P(=O)(N1CCOCC1)N(C)C(c1ccccc1)=N2` (configuration not stated), the inhibition (reported as % activation of signal) was inactive: 0.7%. Next, `Cc1ccc(C(=O)OC2CN3CCC2CC3)cc1` (configuration not stated): inactive: 0.32%. Next, `CC1CCC(C(C)C)C(OP(=O)(Nc2ccccn2)c2ccccc2)C1` (configuration not stated): inactive: 2.18%; `CC1(CBr)Cn2c(nc3ccccc3c2=O)S1` (configuration not stated): inactive: -0.87%.

Regarding `CN(C(=O)Cc1ccc(Cl)c(Cl)c1)[C@@H]1CCCC[C@H]1N1CCCC1`, the inhibition (reported as % activation of signal) is inactive: -1.27%. Next, `CC(C)/C=N\N=C(\N)N[N+](=O)[O-]`: inactive: 0.41%.
